Source: PubChem
Rows were chosen to be rich in hits. Some 2.5% of all compounds tested hit in one or more screens of this group.
TrxR1 substrate = substrates of rat thioredoxin reductase 1. O89049. 390,000 compounds, 0.01% hits. Potency, µM (series often up to 114 µM), for the others: top-dose activity change, negative = substrate turnover. purified TrxR1 substrate turnover, NADPH consumption readout; note: potency is the fitted concentration of half-maximal effect; % is set by controls: 0 for no effect and ±100 for the full control effect; nearly all actives have a fitted effect of over 50% in size
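Rat TrxR1, dispensed at 90 nM, was prereduced with 400 uM NADPH (final) for 5 min at ~22 deg C, then incubated with compound 15 min before 400 uM selenite. A first-read NADPH fluorescence drop versus no-compound background flagged substrates.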
miR-21 reporter = raises the signal of a miR-21 reporter; 340,000 tested, under 10 active; HeLa miR-21 FLuc reporter, luciferase, 48 h; Potency, µM (highest dose often 38.3 µM), without a hit: top-dose reporter change, positive = more light; active = well fitted rising curve with a large enough effect; inconclusive = small, poorly fitted or top-dose-only effect; inactive = no such curve, though single readings can be large or run the other way;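 also: % of control where 0% means no effect; miR-21 action dims this reporter so a rising signal means less miR-21 action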
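HeLa cells stably expressing CMV-driven firefly luciferase with a downstream miR-21 binding sequence, endogenously expressing miR-21, were treated with titrations (up to about 40uM final) for 48 hours at 37 degree Celsius. Luciferase luminescence was read after lysis.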
ClpP mod = qHTS Assay for Activators of ClpP. AID 651965, 2013. 340,000 compounds, 1.9% hits. Potency, µM (doses to about 57.5 µM), for inactives: top-dose activity change, negative = active. purified B. subtilis ClpP, FRET peptide cleavage, 20 min; active = well fitted falling curve with a large enough effect; inconclusive = small, poorly fitted or top-dose-only effect; inactive = no such curve, though single readings can be large or run the other way; note: potency is the fitted concentration of half-maximal effect; the source files actives as falling curves though it sought activators and does not explain the sign; nearly all actives have a fitted effect of over 65% in size
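Buffer: 100 mM Tris/HCl pH8, 100 mM KCl, 0.05% low protease BSA, 2.5% glycerol, 0.01% Tween-20. ClpP 10 microg/mL final; 20 min RT; delta FRET normalized to ADEP and DMSO controls.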
TrxR1 inh = rat TrxR1 inhibition; 390,000 compounds, 1% hits; AID 588453; recombinant rTrxR1, NADPH fluorescence consumption, selenite substrate; Potency, µM (highest dose often 114 µM), for the others: at the top dose activity change, negative = inhibition, hits mostly inhibitors; note: potency is the fitted concentration of half-maximal effect; % is set by controls: 0 for no effect and ±100 for the full control effect; nearly all actives have a fitted effect of over 65% in size
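Rat TrxR1 (90 nM in the dispensed reagent) was pre-reduced with 400 uM NADPH for 5 min at room temperature, then incubated with compound for 15 min. After 400 uM selenite was added, NADPH fluorescence (Ex 340/Em 450 nm) was followed for 8 min.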
Apoferritin bind = binds horse apoferritin like a general anesthetic; P02791; apoferritin/1-aminoanthracene competitive binding, fluorescence; Potency, µM (series often up to 77.5 µM), inactives show top-dose activity change, negative = displacement, usual class: inhibitors; 350,000 compounds, 0.074% hits; note: potency is the fitted concentration of half-maximal effect; % is set by controls: 0 for no effect and ±100 for the full control effect; nearly all actives have a fitted effect of over 20% in size
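Probe: 1-aminoanthracene (50% saturated, PBS). Protein: horse-spleen apoferritin, 10 uM. Incubation: 10 min, room temperature. Detection: 380 nm excitation, 535 nm emission. Analysis: normalized response, four-parameter Hill.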
* hit, by the source's call; ? = inconclusive; nt = no result given; ! = repeats disagree; [ ] = another dose, or the depositor's remark. Unless noted, calls come from the whole dose curve; as a rule, active = well fitted curve in the direction sought with a large enough effect; inconclusive = small, poorly fitted or top-dose-only effect, or another doubt; inactive = no such curve, though single readings can be large; an effect the other way counts as inactive or inconclusive.

Letter code – A = TrxR1 substrate; B = miR-21 reporter; C = ClpP mod; D = TrxR1 inh; E = Apoferritin bind
SMILES: COc1cccc(-c2ccc(-c3noc(-c4ccccc4F)n3)c(OC)n2)c1
  A: 137%[57.1 µM]	B: -7%	C: 14µM*	D: 207%[57.1 µM]	E: -2%

SMILES: COc1cccc(-c2ccc(-c3noc(-c4cccs4)n3)c(OC)n2)c1
  A: 71%	B: -5%	C: ?	D: -12%	E: -8%

SMILES: COc1ccccc1-c1nc(-c2ccc(C)nc2OC)no1
  A: 3%[57.1 µM]	B: -66%	C: 14µM*	D: 3%[57.1 µM]	E: 5%

SMILES: COc1ccc(-c2ccc(-c3noc(-c4cc(OC)cc(OC)c4)n3)c(OC)n2)cc1
  A: 38%	B: -19%	C: 16µM*	D: 18%	E: -12%

SMILES: Cc1ccc(S(=O)(=O)c2cn(Cc3ccccc3F)c3cc4c(cc3c2=O)OCO4)cc1
  A: 5%	B: -2%	C: -29%	D: 10%	E: 3%

SMILES: COc1cccc(/C=C/c2nccc3ccccc23)c1OC
  A: -6%	B: nt	C: -18%	D: 4%	E: nt

SMILES: COc1ccc(-n2c(SCc3ccccc3)nc3c([nH]c4ccccc43)c2=O)cc1
  A: 3%[57.1 µM]	B: -8%	C: 4%	D: 20%[57.1 µM]	E: ?

SMILES: Cc1cccc(CN2CCN(C(=O)c3ccccc3F)CC2)c1
  A: 8%	B: 2%	C: 1%	D: 24%	E: 6%

SMILES: Cc1cccc(CN2CCN(C(=O)CCl)CC2)c1
  A: 7%	B: ?	C: 2%	D: 11µM*	E: 0%

SMILES: Cc1cccc(CN2CCN(C(=O)c3cccc4ccccc34)CC2)c1
  A: -3%[57.1 µM]	B: 1%	C: 32µM*	D: 8%[57.1 µM]	E: -6%

SMILES: COc1cc(C(=O)N2CCN(C(=O)c3cccc4ccccc34)CC2)cc(OC)c1OC
  A: 7%[57.1 µM]	B: 0%	C: nt	D: 15%[57.1 µM]	E: -5%

SMILES: O=C(c1ccncc1)N1CCN(C(=O)c2cccc3ccccc23)CC1
  A: -4%	B: 0%	C: 14µM*	D: -1%	E: -10%

SMILES: O=C(/C=C/C#Cc1cccc(NS(=O)(=O)c2ccccc2)c1)NO
  A: nt	B: nt	C: nt	D: nt	E: -12%

SMILES: Cc1ccc(Cl)cc1N1CCN(c2nc3ccccc3c3nc(-c4cccnc4)nn23)CC1
  A: 0%	B: -4%	C: -1%	D: 16%	E: 63%

SMILES: O=C1CCCc2c1cc(C(=O)NCc1ccco1)c(=O)n2-c1ccc(Cl)cc1
  A: 0%	B: -7%	C: 20µM*	D: ?	E: -9%

3 of the compounds above, with values under each structure.
Values run as follows: TrxR1 substrate | miR-21 reporter | ClpP mod | TrxR1 inh | Apoferritin bind
Cc1cccc(CN2CCN(C(=O)c3cccc4ccccc34)CC2)c1
→ -3%[57.1 µM] | 1% | 32µM* | 8%[57.1 µM] | -6%
COc1cccc(/C=C/c2nccc3ccccc23)c1OC
→ -6% | nt | -18% | 4% | nt
Cc1cccc(CN2CCN(C(=O)CCl)CC2)c1
→ 7% | ? | 2% | 11µM* | 0%

Next section
Letter code – A = TrxR1 substrate; B = miR-21 reporter; C = ClpP mod; D = TrxR1 inh; E = Apoferritin bind
SMILES: Cc1ccc(-n2c3c(cc(C(=O)NCc4ccco4)c2=O)C(=O)CCC3)cc1
  A: 0%	B: -3%	C: -9%	D: -2%	E: -7%

SMILES: CCOC(=O)N1CC=C2C(C#N)=C(N)C(C#N)(C#N)[C@H](c3ccccc3OCC)[C@H]2C1
  A: 5%	B: -8%	C: -17%	D: 50µM*	E: -12%

SMILES: COc1cc(CN2CCNC(=O)C2CC(=O)N(C)CCCN2CCOCC2)cc(OC)c1 (stereo not drawn)
  A: 4%	B: -1%	C: -2%	D: -1%	E: -6%

SMILES: CC(C)CCN1CCNC(=O)C1CC(=O)N(C)CCCN1CCOCC1 (stereo not drawn)
  A: 6%	B: 1%	C: 32µM*	D: 8%	E: -3%

SMILES: CC(NC(=O)CN(c1ccc(Cl)cc1Cl)S(=O)(=O)c1ccccc1)c1ccccc1 (stereo not drawn)
  A: -4%	B: 21%	C: -1%	D: 24%[11.4 µM]	E: 12%

SMILES: Cc1ccc(N2C(=O)CSC23C(=O)N(CC(=O)Nc2ccc(C)cc2C)c2ccccc23)cc1 (stereo not drawn)
  A: 0%	B: 7%	C: -1%	D: 14%	E: -23%

SMILES: O=C(CCl)Nc1c2c(nn1-c1ccccc1)CSC2
  A: -3%	B: ?	C: nt	D: 13µM*	E: -6%

SMILES: O=C(CCCCl)Nc1c2c(nn1-c1ccccc1)CSC2
  A: 5%	B: -2%	C: 1%	D: 27%	E: -12%

SMILES: C#CC(=O)CC1(CN(Cc2ccccc2)C(=O)OC(C)(C)C)CCCCC1
  A: -5%	B: nt	C: -1%	D: 2µM*	E: nt

SMILES: CSc1ccc(CNC(=O)Cn2c(-c3cccs3)cc3cc(F)ccc32)cc1
  A: 70%	B: 4%	C: ?	D: 13%	E: 80%

SMILES: CCCCC(=O)N1CC(=O)Nc2ccc(F)cc2C1c1ccc(F)cc1 (stereo not drawn)
  A: 10%[57.1 µM]	B: 2%	C: 20µM*!	D: 15%[57.1 µM]	E: 1%

SMILES: CCc1ccc(NC(=O)Cn2ccn(-c3ccc(C)c(C)c3)c(=O)c2=O)cc1
  A: -1%	B: -4%	C: 4%	D: -19%	E: ?

SMILES: O=C(CCn1c(=O)c2sccc2n(Cc2cc(=O)n3ccccc3n2)c1=O)NCc1ccco1
  A: 14%[57.1 µM]	B: -1%	C: 28µM*	D: 2%[57.1 µM]	E: -6%
